Like-named read-outs stand apart in the source and are kept apart here.
Key:
[1] = target: T1, MOR (Homo sapiens, UniProt P35372); assay: cell-based; design: host or cells: U2OS-β-arrestin2-EFC-hMOR; conditions: Table 3; read-out: MOR Mediated B-arrestin Recruitment
[2] = target: T1, MOR; assay: cell-based; design: expressed in transfected cells; host or cells: CHO-hMOR (membrane variant); SH-SY5Y-hMOR also named; conditions: Table 3; inhibition of forskolin-induced cAMP accumulation; read-out: MOR cAMP Agonist Potency ± SEM
[3] = target: T2, δ opioid receptor (Rattus norvegicus, UniProt P33533); assay: Binding assay, 3H DADLE, rat tissue; conditions: 100 nM concentration
T2 construct: from tissue; host or cells: rat tissue (per the earlier reading)

Protein sequences, listed by entry. Tags and fused reporters are not part of them. Lines headed by an entry give the natural chain unless they say otherwise; changes in a name come on top.
UniProt P35372, whole entry: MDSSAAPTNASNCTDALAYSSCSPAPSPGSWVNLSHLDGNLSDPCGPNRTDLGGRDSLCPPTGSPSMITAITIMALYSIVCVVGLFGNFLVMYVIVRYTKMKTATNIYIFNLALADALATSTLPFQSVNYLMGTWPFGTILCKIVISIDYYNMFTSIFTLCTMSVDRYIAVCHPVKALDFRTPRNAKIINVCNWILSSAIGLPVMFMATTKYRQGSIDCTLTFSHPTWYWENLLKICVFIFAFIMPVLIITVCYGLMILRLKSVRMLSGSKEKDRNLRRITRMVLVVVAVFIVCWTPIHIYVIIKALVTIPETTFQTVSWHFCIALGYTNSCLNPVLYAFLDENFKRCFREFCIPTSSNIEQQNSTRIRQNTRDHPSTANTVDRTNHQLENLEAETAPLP
UniProt P33533, whole entry: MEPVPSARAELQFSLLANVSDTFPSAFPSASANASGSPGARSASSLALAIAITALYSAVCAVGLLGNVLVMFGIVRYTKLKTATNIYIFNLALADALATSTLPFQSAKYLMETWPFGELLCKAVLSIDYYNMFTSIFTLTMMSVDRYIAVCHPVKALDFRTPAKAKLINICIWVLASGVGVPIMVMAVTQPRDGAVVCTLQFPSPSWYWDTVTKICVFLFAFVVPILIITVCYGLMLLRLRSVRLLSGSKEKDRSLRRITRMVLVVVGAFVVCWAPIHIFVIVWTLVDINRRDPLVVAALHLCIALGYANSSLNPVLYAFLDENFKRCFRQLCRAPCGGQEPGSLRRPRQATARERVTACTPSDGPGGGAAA

SMILES	EC50 [1]	EC50 [2]	3H DADLE δ activity in exploratory assay [3]
Oc1cccc(C23CCC[C@H]([C@H]2O)N(C/C=C/c2ccccc2)CC3)c1 (stereo in doubt) [Compound 52, (1R,5R,9S)-2-Cinnamyl-5-(3-hydroxyphenyl)-2-azabicyclo[3.3.1]nonan-9-ol]	> 25000 nM	0.13 ± 0.02 nM	–
CN1CC[C@]23c4c5ccc(O)c4O[C@H]2[C@@H](O)C=C[C@H]3[C@H]1C5 [Morphine, reference compound]	–	–	I (<50% activity at 100 nM concentration (displaced less than half of radioligand) in exploratory assay)
